{
  "source": "patent EP1032559B1",
  "about": "(priority 1997, dated 1999)",
  "target": "clonidine: α2-receptor",
  "experiment": "in vitro clonidine binding: α2-receptor assay",
  "set-up": "species or system Male Wistar rats",
  "conditions": "rat cortical tissue homogenate; 3 nM 3H-clonidine; 20 minutes at 25° C; log-probit analysis; read-out: Inhibition of clonidine binding activity IC50",
  "experimental": "The alkylaminophenol derivatives of the present invention are also useful as agents for treating depression. […] U'Prichard, et al., Molecular Pharmacology, 16, 47 (1979) and D. C. U'Prichard, et al., Molecular Pharm acology, 13, 454 (1976).\nThe following reagents are prepared: 1. Tris buffer, pH 7.7 • a. 57.2 g Tris hydrochloride 16.2 g Tris Base - q.s. to 1 liter (0.5 M Tris buffer, pH 7.7) • b. Make a 1:10 dilution in distilled H2O (0.05 M Tris buffer, pH 7.7) 2. Tris buffer containing physiological ions a. Stock Buffer\nb. Dilute 1:10 in distilled H2O. This yields 0.05 M Tris hydrochloride pH 7.7; containing sodium chloride (120 mM), potassium chloride (5 mM), calcium chloride (2 mM) and magnesium chloride (1 mM). 3. [4-^3H]-Clonidine Hydrochloride (20-30 Ci/mmol) is obtained from New England Nuclear. For IC50 determinations: ^3H-Clonidine is made up to a concentration of 120 nM and 50 µl added to each tube (yields a final concentration of 3 nM in the 2 ml volume assay). 4. Clonidine hydrochloride is obtained from Boehringer Ingelheim. […]\nTissue homogenates are incubated for 20 minutes at 25° C with 3 nM ^3H-clonidine and varying drug concentrations, then immediately filtered under reduced pressure on Whatman GF/B filters. […] Ten ml of liquescent counting solution is added to each sample which is then counted by liquid scintillation spectroscopy. […]",
  "data": [
    {"smiles": "CN(C)CCC=C1c2ccccc2CCc2ccccc21", "note": "[amitriptyline]", "values": [
      {"measurement": "IC50", "result": 39, "unit": "nM"}
    ]}
  ]
}
